Measurements taken from patent US9757354B2 (priority 2015, dated 2017).

Key:
[1] = Dissolution rate and pH of sulfanegen salt solutions; format: physicochemical; settings: aqueous amine solution added to sulfanegenic acid
[2] = Stability of sulfanegen salts in solution and on storage; settings: room temperature; thermal stability; unpublished results

Substance: sulfanegen triethanolamine
- dissolution on in situ formation of the salt [1]: rapid dissolution
- shelf life [2]: < 6 month
